We go through one compound from patent US20240409542A1, “NOVEL COMPOUNDS” (Sitryx Therapeutics Limited, priority 2021, published 2024).

The subject of this experiment is A549 cells. The experiment in a line: A549 proliferation assay in low-serine medium (CellTiter-Glo). The class given is cell-based. The note with it: Homo sapiens, 72 h, 3 days, low-serine medium (20 μM L-serine). Here is the method:
In highly proliferative, glycolytically active cells, PKM2 activation accelerates flux through glycolysis and induces a powerful dependence of cell proliferation on the non-essential amino acid serine (Kung et al., 2012). The effect of compounds of Formula (I) on A549 cell proliferation in low-serine medium was assessed using a luminescence assay of viable cell number (CellTiter-Glo® 2.0, Promega) duplexed with a fluorescent cytotoxicity assessment (CellTox™ Green, Promega). Cell culture reagents were from ThermoFisher unless specified otherwise. Assay reagents were from Sigma-Aldrich unless specified otherwise. Test Compounds were prepared as 10 mM DMSO stocks and dilution series prepared in DMSO for direct dilution into culture medium. […]
Cells were incubated for 3 days in a humidified incubator (37° C., 5% CO2) at which point CellTox™ Green and CellTiter-Glo® reagents were prepared according to the manufacturer's instructions. […] Endpoint fluorescence was measured using a plate reader (PHERAstar® FSX, BMG Labtech).
Following cytotoxicity determination, CellTiter-Glo® reagent was added to each well and the plate placed on an orbital shaker @450 rpm for 2 minutes to lyse cells. Plates were incubated in the dark for 15-30 minutes (20° C., ambient humidity and pCO2) prior to endpoint luminescence measurement (PHERAstar® FSX, BMG Labtech). […]
A general note: In ATP-based viability assays light output follows the ATP content of the culture.

For orientation: IC50 means the midpoint of a concentration-inhibition curve. A low value points to greater potency in that assay. Compound `Cn1c2cc([S+](C)[O-])sc2c2cnn(Cc3cccc(N)c3)c(=O)c21` (stereo not shown) [TEPP-46, reference compound] yielded an IC50 of 1.6 nM.
